# Measured melting point values of organic chemicals

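These are experimental values that the OPERA curators gathered from public databases to train and test their QSAR models. The files give a single number for a compound and property, which may rest on several reports. Conditions of the individual experiments are not part of the data. Where a salt, mixture or single isomer is drawn, the source does not say that exactly this form was tested. Unmarked limits or estimates from the upstream databases cannot be ruled out.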

Melting points are in °C. The databases behind each value are named after "via".

SMILES	melting point (°C)	via
S=C(SSSSSSC(=S)N1CCCCC1)N1CCCCC1	122.3	eChemPortal
CCCCCCCOC(=N)O	66	QSARDB
CCCCCCCCC(=O)OC	-34.5	PubChem, QSARDB
CCOC(=O)c1c(C)[nH]c(C(=O)O)c1C	205	OCHEM
O=c1c2ccccc2nnn1CO	134	OCHEM
Clc1ccc(Cn2cncn2)cc1	67	OCHEM
Fc1cc2[nH]c(=S)[nH]c2cc1F	292	OCHEM
CCOC(=O)c1ccc(N=CN(C)c2ccccc2)cc1	27	eChemPortal
Cc1c(C(=O)CBr)oc2ccccc12	111	OCHEM
Cc1ccc(Oc2ccc(O)cc2)cc1	72	OCHEM
COc1ccc2c(C)cc(NN)nc2c1	251	OCHEM
C=CC(=O)NCOC	-7	eChemPortal
CCN(CC)Cc1ccc(O)c2ncccc12	61	OCHEM
C=CCc1ccc(OC(=O)c2ccccc2)c(OC)c1	69.5	PubChem
CCn1c(O)c(N=Nc2ccc(C(=O)OCCOCCOC)cc2)c(C)c(C#N)c1=O	182.3	eChemPortal
COC(=O)C(=O)CC(=O)c1ccc(Cl)cc1Cl	119	OCHEM
Nc1ncc(C(F)(F)F)cc1Br	99.5	OCHEM
O=C(O)c1cccc(S(=O)(=O)N2CCCC2)c1	158	OCHEM
CC(=O)[O-].COc1ccc2c(c1)=[O+]/C(=C1/N(C)c3ccc(S(C)(=O)=O)cc3N1C)C=2	157	eChemPortal
O=C(O)c1ccc(/N=N/c2c(O)ccc3cc(S(=O)(=O)[O-])ccc23)cc1.O=C(O)c1ccc(/N=N/c2c(O)ccc3cc(S(=O)(=O)[O-])ccc23)cc1.[Sr+2]	359.9	eChemPortal
Cc1nn(-c2ccccc2)c(=O)[c-]1/N=N/c1cc([N+](=O)[O-])cc(S(=O)(=O)[O-])c1[O-].Cc1nn(-c2ccccc2)c(=O)[c-]1/N=N/c1cc([N+](=O)[O-])cc(S(=O)(=O)[O-])c1[O-].[Co+3].[Na+].[Na+].[Na+]	299.9	eChemPortal
CCCCCCCCCCCCCCCCCCNC(=O)CCc1cc(C(C)(C)C)c(O)c(C(C)(C)C)c1	85	eChemPortal
Cc1cc2c(c(C3CCCCC3)c1)OP(O)Oc1c(cc(C)cc1C1CCCCC1)C2	140.2	eChemPortal
COc1ccc2c(c1)CCCC2=CC[C@@]1(C)C(=O)CC[C@@H]1O	112	eChemPortal
COc1ccc([N+](=O)[O-])cc1C(=O)O	156.5	OCHEM
Cc1ccc2nc(C)c(C(=O)O)cc2c1	175	OCHEM
C[C@@H]1O[C@@H](Oc2c(-c3cc(O)c(O)c(O)c3)oc3cc(O)cc(O)c3c2=O)[C@H](O)[C@H](O)[C@H]1O	195.5	PubChem
CN(c1ccc(O)cc1)S(C)(=O)=O	130	OCHEM
O=C([C@H]1CC[C@H](C(=O)N(CCO)CCO)CC1)N(CCO)CCO	178.2	eChemPortal
CCCCCCC(O)CCCCCCCCCCC(=O)[O-].[Li+] (stereo not drawn)	220	eChemPortal
Cc1cc(O)c(C(C)C)cc1C	70.2	eChemPortal
CCN(CC)S(=O)(=O)c1cccc(C(=O)NN)c1	134	OCHEM
CN1CCc2nc(N)sc2C1	169	OCHEM
CC(C)O.COc1cc(NC(=O)/C(C#N)=C\Nc2ccc(OC)c(OCCCN3CCN(C)CC3)c2)c(Cl)cc1Cl.COc1cc(NC(=O)/C(C#N)=C\Nc2ccc(OC)c(OCCCN3CCN(C)CC3)c2)c(Cl)cc1Cl	167.6	eChemPortal
Cc1cc(C(=O)NN)c2ccccc2n1	178	OCHEM
CCOC(=O)c1c(C)[nH]c(C=O)c1C	163	OCHEM
C=CCNc1nc(-c2ccccc2)cs1	75	OCHEM
CC(C)(C)c1ccc(CCC(=O)O)cc1	106	OCHEM
CCN(CC)Cc1ccc(C(=O)O)cc1	155	OCHEM
Nc1nc2cc(Cl)ccc2s1	198	OCHEM
Nc1ccc(N2CCOCC2=O)cc1	166.7	eChemPortal
c1ccc(Nc2nc3ccccc3s2)cc1	140	OCHEM
Cc1[nH]c(=S)oc1C	133	OCHEM
COc1ccc(SCCC(=O)O)cc1	82	OCHEM
CC(=O)OC1CC(C)OC(C)O1 (stereo not drawn)	0	PubChem
O=S(=O)(Cc1nc2ccccc2[nH]1)c1ccccc1	216	OCHEM
N=c1[nH]c2c(ccc3ccccc32)s1	135	OCHEM
OCc1cnn(Cc2ccccc2)c1	56	OCHEM
COCCOCCOc1cc(Nc2c(C)cc(C)c(S(=O)(=O)[O-])c2C)c2c(c1N)C(=O)c1ccccc1C2=O.[Na+]	191	eChemPortal
CC(C)(C)c1ccc(C(=O)O)cc1[N+](=O)[O-]	157	OCHEM
Cc1nn2cn[nH]c2nc1=O	196	OCHEM
CCCCC(CC)CNc1ccc(NCC(CC)CCCC)c2c1C(=O)c1c(O)ccc(O)c1C2=O (stereo not drawn)	124	eChemPortal
Nc1cc(-c2ccc([N+](=O)[O-])cc2)no1	196	OCHEM
CCCC[N+](C)(CCCC)CCCC.[Cl-]	43	eChemPortal

The first 7 entries again:

SMILES	melting point (°C)	via
S=C(SSSSSSC(=S)N1CCCCC1)N1CCCCC1	122.3	eChemPortal
CCCCCCCOC(=N)O	66	QSARDB
CCCCCCCCC(=O)OC	-34.5	PubChem, QSARDB
CCOC(=O)c1c(C)[nH]c(C(=O)O)c1C	205	OCHEM
O=c1c2ccccc2nnn1CO	134	OCHEM
Clc1ccc(Cn2cncn2)cc1	67	OCHEM
Fc1cc2[nH]c(=S)[nH]c2cc1F	292	OCHEM

Data: OPERA 2.9 data sets, kmansouri/OPERA on GitHub.